Holding throughout (format): cell-based
One test addresses HCN2 (Homo sapiens (Human), UniProt Q9UL51). In words: HCN2 current assay using PatchXpress 7000A. To be noted: read-out: PX HCN2 IC50; PatchXpress protocol; tested form: HCl.
In another test the target is HCN4 (Homo sapiens (Human), UniProt Q9Y3Q4). In words: HCN4 current assay using PatchXpress 7000A. To be noted: read-out: PX HCN4 IC50; PatchXpress protocol; tested form: HCl.
Another test has as its target HCN1 (Homo sapiens (Human), UniProt O60741). In words: HCN1 current assay using PatchXpress 7000A. To be noted: read-out: PX HCN1 IC50; PatchXpress protocol; tested form: HCl.

The chains behind the UniProt entries cited, without tags or fusion partners.
UniProt Q9UL51, whole entry: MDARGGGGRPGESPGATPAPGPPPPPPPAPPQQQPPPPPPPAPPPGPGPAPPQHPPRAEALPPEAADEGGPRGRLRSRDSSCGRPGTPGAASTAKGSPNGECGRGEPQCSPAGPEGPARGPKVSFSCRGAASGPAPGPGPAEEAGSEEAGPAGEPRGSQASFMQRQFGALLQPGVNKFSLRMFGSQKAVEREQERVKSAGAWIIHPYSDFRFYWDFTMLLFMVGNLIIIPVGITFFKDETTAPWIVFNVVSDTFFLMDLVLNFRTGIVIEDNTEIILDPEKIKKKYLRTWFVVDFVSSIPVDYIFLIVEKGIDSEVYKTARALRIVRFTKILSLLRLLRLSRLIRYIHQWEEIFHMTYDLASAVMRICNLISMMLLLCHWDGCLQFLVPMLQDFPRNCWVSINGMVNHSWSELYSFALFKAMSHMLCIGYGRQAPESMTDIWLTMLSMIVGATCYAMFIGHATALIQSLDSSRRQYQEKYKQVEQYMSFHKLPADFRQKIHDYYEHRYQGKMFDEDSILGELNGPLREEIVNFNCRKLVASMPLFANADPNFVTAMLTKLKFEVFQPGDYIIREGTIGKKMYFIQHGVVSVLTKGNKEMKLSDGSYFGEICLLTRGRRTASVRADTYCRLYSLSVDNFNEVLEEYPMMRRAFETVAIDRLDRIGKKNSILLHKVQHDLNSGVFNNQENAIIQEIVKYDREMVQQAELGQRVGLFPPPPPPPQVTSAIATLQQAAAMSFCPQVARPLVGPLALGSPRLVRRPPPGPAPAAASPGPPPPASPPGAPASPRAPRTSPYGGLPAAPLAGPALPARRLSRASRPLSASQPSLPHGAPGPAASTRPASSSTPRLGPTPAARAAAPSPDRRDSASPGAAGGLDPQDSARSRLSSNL
UniProt Q9Y3Q4, whole entry: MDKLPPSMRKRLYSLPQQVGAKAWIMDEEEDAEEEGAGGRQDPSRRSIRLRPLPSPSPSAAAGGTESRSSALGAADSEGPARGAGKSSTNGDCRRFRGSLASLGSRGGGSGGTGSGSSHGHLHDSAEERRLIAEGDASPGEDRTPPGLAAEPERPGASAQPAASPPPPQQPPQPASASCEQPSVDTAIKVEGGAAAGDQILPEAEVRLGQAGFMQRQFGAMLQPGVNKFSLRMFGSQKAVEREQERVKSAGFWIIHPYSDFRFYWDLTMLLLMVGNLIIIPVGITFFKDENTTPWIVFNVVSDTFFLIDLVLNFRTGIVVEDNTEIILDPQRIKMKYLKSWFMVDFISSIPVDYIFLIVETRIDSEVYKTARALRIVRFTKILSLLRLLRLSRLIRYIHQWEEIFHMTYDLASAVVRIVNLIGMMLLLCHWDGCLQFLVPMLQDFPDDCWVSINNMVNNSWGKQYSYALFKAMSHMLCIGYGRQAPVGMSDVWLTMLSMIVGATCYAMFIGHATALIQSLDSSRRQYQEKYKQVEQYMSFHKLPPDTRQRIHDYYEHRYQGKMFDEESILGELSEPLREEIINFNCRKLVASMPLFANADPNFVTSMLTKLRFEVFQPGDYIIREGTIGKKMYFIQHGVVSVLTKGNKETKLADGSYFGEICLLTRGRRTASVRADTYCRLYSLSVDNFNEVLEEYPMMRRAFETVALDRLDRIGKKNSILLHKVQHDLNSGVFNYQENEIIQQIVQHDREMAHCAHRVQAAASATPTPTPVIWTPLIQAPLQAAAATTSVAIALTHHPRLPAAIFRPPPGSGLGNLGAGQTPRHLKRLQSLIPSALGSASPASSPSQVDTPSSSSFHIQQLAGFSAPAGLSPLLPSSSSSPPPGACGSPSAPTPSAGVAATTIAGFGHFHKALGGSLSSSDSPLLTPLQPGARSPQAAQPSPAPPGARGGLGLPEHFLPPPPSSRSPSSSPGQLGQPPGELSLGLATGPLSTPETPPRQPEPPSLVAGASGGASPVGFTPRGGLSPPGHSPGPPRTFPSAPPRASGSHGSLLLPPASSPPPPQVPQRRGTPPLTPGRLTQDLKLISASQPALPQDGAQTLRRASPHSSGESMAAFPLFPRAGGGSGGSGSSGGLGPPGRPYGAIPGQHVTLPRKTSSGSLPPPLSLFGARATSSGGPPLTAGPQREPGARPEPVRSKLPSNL
UniProt O60741, whole entry: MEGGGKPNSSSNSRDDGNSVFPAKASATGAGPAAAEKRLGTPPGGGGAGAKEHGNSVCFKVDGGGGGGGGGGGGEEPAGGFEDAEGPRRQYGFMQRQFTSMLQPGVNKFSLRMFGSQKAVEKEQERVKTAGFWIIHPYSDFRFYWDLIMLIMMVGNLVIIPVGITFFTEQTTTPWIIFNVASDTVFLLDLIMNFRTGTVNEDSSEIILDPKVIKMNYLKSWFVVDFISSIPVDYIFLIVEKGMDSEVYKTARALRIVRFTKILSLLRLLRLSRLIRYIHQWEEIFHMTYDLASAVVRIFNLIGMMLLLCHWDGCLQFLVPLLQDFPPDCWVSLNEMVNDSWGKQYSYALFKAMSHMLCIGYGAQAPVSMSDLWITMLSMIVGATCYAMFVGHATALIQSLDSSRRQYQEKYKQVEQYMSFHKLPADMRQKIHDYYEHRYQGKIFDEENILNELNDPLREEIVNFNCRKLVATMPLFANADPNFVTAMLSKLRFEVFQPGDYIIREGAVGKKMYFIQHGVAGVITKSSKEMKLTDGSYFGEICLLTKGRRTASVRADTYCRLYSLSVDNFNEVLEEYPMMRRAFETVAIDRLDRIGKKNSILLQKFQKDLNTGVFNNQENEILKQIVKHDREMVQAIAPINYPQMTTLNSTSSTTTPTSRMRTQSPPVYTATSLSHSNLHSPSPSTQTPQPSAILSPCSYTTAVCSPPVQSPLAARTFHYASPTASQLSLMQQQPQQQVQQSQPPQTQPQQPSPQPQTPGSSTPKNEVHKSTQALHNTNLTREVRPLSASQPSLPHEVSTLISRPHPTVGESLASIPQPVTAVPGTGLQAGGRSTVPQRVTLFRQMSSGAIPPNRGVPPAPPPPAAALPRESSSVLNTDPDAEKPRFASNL

The structures appear in SMILES notation. pIC50: −log10 of the molar value.

As usually defined, the pIC50 is −log10 of the IC50, conventionally taken in molar units.

As to `N[C@@H](Cc1cccc(F)n1)c1ccccc1-c1noc2ccccc12`, the pIC50 at HCN2 was 6.00; at HCN4, 4.98; on HCN1, 5.70.

These data come from patent publication US20240190854A1, “PYRIMIDINE OR PYRIDINE DERIVATIVES USEFUL AS HCN2 MODULATORS” (King's College London, priority 2021, published 2024).
